Assay results as given in patent publication USRE49825E1, “Piperidinyl nociceptin receptor compounds” (Astraea Therapeutics, LLC, priority 2015, dated 2024).
Where two headings read alike, the source gives them in different places.

Tests used:
mu opioid receptor = mu opioid receptor (Homo sapiens, UniProt P35372); experiment: Radioligand binding assay, [3H]DAMGO, membranes of CHO cells transfected with human mu opioid receptor
[1] = target: nociceptin (NOP) receptor (Homo sapiens, UniProt P41146); experiment: Radioligand binding assay, [3H]N/OFQ, membranes of CHO cells transfected with human NOP receptor
kappa opioid receptor = kappa opioid receptor (Homo sapiens, UniProt P41145); experiment: Radioligand binding assay, [3H]U69593, membranes of CHO cells transfected with human kappa opioid receptor
[2] = read-out: Receptor Binding Ki (nM) μ, Compounds of Formula (II), CHO cell membranes
[3] = read-out: Receptor Binding Ki (nM) NOP, Compounds of Formula (II), CHO cell membranes
[4] = read-out: Receptor Binding Ki (nM) κ, Compounds of Formula (II), CHO cell membranes
[5] = read-out: Receptor Binding Ki (nM) μ, Compounds of Formula (III), CHO cell membranes
[6] = read-out: Receptor Binding Ki (nM) NOP, Compounds of Formula (III), CHO cell membranes
[7] = read-out: Receptor Binding Ki (nM) κ, Compounds of Formula (III), CHO cell membranes

Structure (SMILES) | Ki (mu opioid receptor; [2]) [nM] | Ki [1, 3] [nM] | Ki (kappa opioid receptor; [4]) [nM] | Ki (mu opioid receptor; [5]) [nM] | Ki [1, 6] [nM] | Ki (kappa opioid receptor; [7]) [nM]
CC(C)[C@H]1CC[C@@H](N2CCC(n3cc(CCCN)c4ccccc43)CC2)CC1 | 15 to 150 | 15 to 150 | 150 to 5000 |  |  | 
CC(C)[C@H]1CC[C@@H](N2CCC(n3cc(CN=[N+]=[N-])c4ccccc43)CC2)CC1 (relative stereo) | 150 to 5000 | 15 to 150 | 150 to 5000 |  |  | 
CC(C)[C@H]1CC[C@@H](N2CCC(n3c(CN(CC4CC4)CC4CC4)cc4ccccc43)CC2)CC1 | 15 to 150 | 15 to 150 | 15 to 150 |  |  | 
CC(=O)NC(C(=O)NCc1cc2ccccc2n1C1CCN([C@H]2CC[C@@H](C(C)C)CC2)CC1)C(C)C (relative stereo) | < 15 | < 15 | 15 to 150 |  |  | 
CC(C)C1CCC(N2CCC(n3cc(CNC(=NC#N)Oc4ccccc4)c4ccccc43)CC2)CC1 (stereo not drawn) | 150 to 5000 | 15 to 150 | > 5000 |  |  | 
CC(=O)OCc1cc2ccccc2n1C1CCN([C@H]2CC[C@@H](C(C)C)CC2)CC1 | < 15 | < 15 | 150 to 5000 |  |  | 
CC(C)[C@H]1CC[C@@H](N2CCC(n3cc(/C=C\C#N)c4ccccc43)CC2)CC1 | 150 to 5000 | 15 to 150 | 150 to 5000 |  |  | 
CC(=O)OCCc1cc2ccccc2n1C1CCN([C@H]2CC[C@@H](C(C)C)CC2)CC1 | < 15 | < 15 | 150 to 5000 |  |  | 
CC(C)C1CCC(N2CCC(n3c(CNC(=O)OCc4ccccc4)c(/C=N/O)c4ccccc43)CC2)CC1 (stereo not drawn) | < 15 | < 15 | 150 to 5000 |  |  | 
Cc1ccc2c(c1)cc(CNC(=O)OCc1ccccc1)n2C1CCN([C@H]2CC[C@@H](C(C)C)CC2)CC1 | 15 to 150 | 150 to 5000 | > 5000 |  |  | 
CC(C)[C@H]1CC[C@@H](N2CCC(n3c(CO)c(C(N)=O)c4ccccc43)CC2)CC1 (relative stereo) | 15 to 150 | < 15 | 150 to 5000 |  |  | 
CNC(=O)NC1C(=O)N(C2CCN([C@H]3CC[C@@H](C(C)C)CC3)CC2)c2ccccc21 (stereo partly drawn) |  |  |  | 150 to 5000 | 15 to 150 | 150 to 5000
CC(=O)NCc1c(CO)c2ccccc2n1C1CCN([C@H]2CC[C@@H](C(C)C)CC2)CC1 (relative stereo) | 15 to 150 | < 15 | 150 to 5000 |  |  | 
Cc1ccc2c(c1)cc(CO)n2C1CCN([C@H]2CC[C@@H](C(C)C)CC2)CC1 | 150 to 5000 | 150 to 5000 | 150 to 5000 |  |  | 
Cc1ccc(S(=O)(=O)NCc2c(CO)c3ccccc3n2C2CCN([C@H]3CC[C@@H](C(C)C)CC3)CC2)cc1 | 15 to 150 | < 15 | 150 to 5000 |  |  | 
CC(C)[C@H]1CC[C@@H](N2CCC(n3cc(CNC(N)=S)c4ccccc43)CC2)CC1 (relative stereo) | 15 to 150 | < 15 | 150 to 5000 |  |  | 
CC(C)[C@H]1CC[C@@H](N2CCC(N3C(=O)C(CC(=O)O)c4ccccc43)CC2)CC1 (stereo partly drawn) |  |  |  | 150 to 5000 | 15 to 150 | > 5000
CCC(=O)NCc1cc2ccccc2n1C1CCN([C@H]2CC[C@@H](C(C)C)CC2)CC1 (relative stereo) | 15 to 150 | < 15 | 15 to 150 |  |  | 
Cc1ccc(S(=O)(=O)NCc2c(/C=N/O)c3ccccc3n2C2CCN(C3CCC(C(C)C)CC3)CC2)cc1 (stereo not drawn) | < 15 | < 15 | 15 to 150 |  |  | 
CC(C)C(N)C(=O)NCc1cc2ccccc2n1C1CCN([C@H]2CC[C@@H](C(C)C)CC2)CC1 (relative stereo) | < 15 | < 15 | 15 to 150 |  |  | 
CC(=O)NCCc1cn(C2CCN([C@H]3CC[C@@H](C(C)C)CC3)CC2)c2ccccc12 | 150 to 5000 | 15 to 150 | 150 to 5000 |  |  | 
CC(C)[C@H]1CC[C@@H](N2CCC(n3c(CCOS(N)(=O)=O)cc4ccccc43)CC2)CC1 | < 15 | < 15 | 15 to 150 |  |  | 
